These results are taken from ChEMBL document CHEMBL1145881, “Pyridone-containing farnesyltransferase inhibitors: synthesis and biological evaluation” (Bioorg Med Chem Lett, 2003).

By UniProt entry, the sequences of proteins in these tests, tags left out.
UniProt P53609, whole entry, looked up: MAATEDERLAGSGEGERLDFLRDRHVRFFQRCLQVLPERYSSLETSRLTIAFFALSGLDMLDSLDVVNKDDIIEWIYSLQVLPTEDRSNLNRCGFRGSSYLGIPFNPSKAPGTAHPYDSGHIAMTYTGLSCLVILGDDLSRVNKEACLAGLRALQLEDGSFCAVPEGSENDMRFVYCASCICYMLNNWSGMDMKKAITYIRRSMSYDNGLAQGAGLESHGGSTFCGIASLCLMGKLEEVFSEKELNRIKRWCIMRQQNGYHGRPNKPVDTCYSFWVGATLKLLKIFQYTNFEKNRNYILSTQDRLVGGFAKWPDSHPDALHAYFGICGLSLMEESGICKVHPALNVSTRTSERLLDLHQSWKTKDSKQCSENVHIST

A word on the IC50: it is the midpoint of a concentration-inhibition curve. Low readings indicate higher potency, high ones lower potency. Broadly, the EC50 is the midpoint of the concentration-response curve.

What all share (assay type): protein-complex assay
For test [1], the target named is T1, Protein farnesyltransferase (Homo sapiens, UniProt P49354+P49356). Kind of test: In vitro inhibitory activity against farnesyltransferase (FT).
The target of test [2] is T1, Protein farnesyltransferase. Kind of test: In vitro effective concentration against farnesyltransferase (FT).
The target of test [3] is Geranylgeranyl transferase type I (Homo sapiens, UniProt P49354+P53609). The test is described as follows: In vitro inhibitory activity against Geranylgeranyl transferase type I.

`Cn1cncc1C(OCc1c(-c2cccc(Cl)c2)cc(C#N)c(=O)n1C)c1ccc(C#N)cc1` (stereo not drawn): the IC50 in test [1] was 0.44 nM; in test [3] it was 2700 nM. For the same compound, a half-maximal response in test [2] (EC50) required 0.5 nM.
